# Binding of CDR-mutated scFvs to a peptide of the spike HR2 region

Source: Engelhart et al. 2022 (doi:10.1038/s41597-022-01779-4), MIT Lincoln Laboratory and A-Alpha Bio; data file from the FLAb repository.

Target peptide (SARS-CoV-2 spike, HR2 region): PDVDLGDISGINAS

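The starting antibody came from a phage panning campaign against this peptide. The library (AAYL50) carries one to three amino acid substitutions per variant, with no insertions or deletions. In AlphaSeq, yeast of one mating type display the scFv and yeast of the other type display the target. The frequency of each diploid, read from paired DNA barcodes, reflects how well the two displayed proteins bind. Scores were corrected for input abundance and mapped to Kd with protein pairs of known affinity run in the same pool. The assay was run in three technical replicates.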

Parent: Ab-14, a human scFv built as VH, a 15-residue (Gly4Ser)3 linker, VL. Only the CDRs of the light chain vary.
VH: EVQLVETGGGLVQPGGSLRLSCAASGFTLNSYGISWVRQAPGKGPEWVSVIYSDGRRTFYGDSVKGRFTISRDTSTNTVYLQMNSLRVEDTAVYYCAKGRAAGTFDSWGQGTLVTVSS
VL: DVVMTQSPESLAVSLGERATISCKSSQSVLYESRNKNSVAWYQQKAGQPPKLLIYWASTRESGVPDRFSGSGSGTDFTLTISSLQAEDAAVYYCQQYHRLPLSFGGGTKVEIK

Substitutions are numbered in sequence along the VL above, starting at 1 (not Kabat). This list gathers variants with a substitution at V39 (VL, numbered from residue 1). The read-out is the apparent dissociation constant on a log10 scale (nM): the lower, the stronger. A mean of the replicates is given; it leaves out those without a signal. Where no diploid with the target was found in any replicate, the entry reads "not detected": below detection, most likely a poor binder, though not proof of it.

| changes | mean log10 Kd (nM) | detected |
|---|---|---|
| S26F V39C H98Q | 3.74 | 1/3 |
| V39A T59F L100D | not detected | 0/3 |
| V39D A57K S62E | not detected | 0/3 |
| S26H V39Y L102H | not detected | 0/3 |
| R34G V39A A40S | 4.06 | 1/3 |
| N37Y V39S H98M | 5.17 | 1/3 |
| S28E L30I V39N | 4.09 | 2/3 |
| V29Y S33A V39A | not detected | 0/3 |
| Y31V V39C | 2.82 | 2/3 |
| K24F K36F V39S | not detected | 0/3 |
| K24C V39E A40S | 4.73 | 1/3 |
| V39E | 5.03 | 2/3 |
| V39T R60V S103G | 1.93 | 3/3 |
| K36D V39H W56E | 2.86 | 3/3 |
| V39A | not detected | 0/3 |
| Y31D V39D A57S | not detected | 0/3 |
| V39D T59S Q96K | 3.75 | 2/3 |
| N35G V39K Q95K | 5.03 | 1/3 |
| V39S Q95Y Q96A | 3.76 | 1/3 |
| S26N S33T V39M | 1.62 | 2/3 |
| K24V V39L L102E | 1.46 | 3/3 |
| V39A H98W | 4.93 | 3/3 |
| R34H V39I S103F | 0.31 | 3/3 |
| V39L W56F H98E | 2.00 | 3/3 |
| V39G W56T | not detected | 0/3 |
| S25R L30M V39Q | not detected | 0/3 |
| S28L N35I V39N | not detected | 0/3 |
| E32K V39T P101S | not detected | 0/3 |
| Y31C V39N R99K | 3.40 | 2/3 |
| E32W V39T L100M | 4.31 | 2/3 |
| K36W V39W Q96V | 5.61 | 2/3 |
| V39C H98Q L102E | 5.15 | 1/3 |
| V39H R60F L102F | not detected | 0/3 |
| E32G V39Q L102H | 3.56 | 1/3 |
| L30E V39W S58M | not detected | 0/3 |
| Q27L L30D V39S | 5.25 | 1/3 |
| V39S A40W Q95V | 4.81 | 2/3 |
| L30I S38I V39G | not detected | 0/3 |
| S26R V39S S58W | 4.89 | 2/3 |
| V39F T59N | not detected | 0/3 |
| V39Y H98I R99T | 3.41 | 2/3 |
| K24Y V39Y T59I | not detected | 0/3 |
| S38L V39R | not detected | 0/3 |
| S33K V39G A57G | not detected | 0/3 |
| Y31M V39N R99K | 3.68 | 1/3 |
| Y31L S33C V39T | 4.20 | 2/3 |
| Y31K S38R V39R | not detected | 0/3 |
| R34H V39E H98D | 4.33 | 1/3 |
| Q27V S28I V39L | 3.97 | 1/3 |
| S25C V39F H98Q | 2.02 | 3/3 |
| S33G V39L A57V | 2.72 | 3/3 |
| R34N V39A R99T | 3.31 | 2/3 |
| N35T K36R V39M | 3.43 | 3/3 |
| K24T V29R V39A | 4.14 | 1/3 |
| V29P E32L V39F | 3.73 | 3/3 |
| S25R V39Q S103K | 5.47 | 1/3 |
| V39L S62N L100V | 1.98 | 3/3 |
| S28Q V39L L100E | 1.73 | 3/3 |
| V39R Q95C L102C | not detected | 0/3 |
| L30V V39P R60Q | not detected | 0/3 |
| S26N S28Q V39Y | not detected | 0/3 |
| E32C V39D R60T | not detected | 0/3 |
| E32Y V39F H98Q | 3.55 | 1/3 |
| S25G S33Y V39N | not detected | 0/3 |
| V39K W56M A57C | 2.07 | 3/3 |
| V39A S62F H98G | 4.65 | 1/3 |
| V39I E61H | 2.41 | 3/3 |
| Q27I S28Y V39E | not detected | 0/3 |
| V39A Y97A L100S | not detected | 0/3 |
| S25E V39S A57D | 3.81 | 2/3 |
| Q27A N35H V39K | 4.47 | 1/3 |
| Q27L V39N W56H | 1.47 | 3/3 |
| V39H R60C E61Q | 4.27 | 2/3 |

Background: pairings of library AAYL50 with three empty control strains gave a value in 18% of cases (median 4.19, 5th percentile 2.99). Values in that range, when seen in few replicates, are hard to tell from nonspecific mating. In this assay the parent's reference entry averaged 0.65; its copy inside this library read 1.68.